# Assay results reported in publication PMC9035150, “Effects of ALT-801, a GLP-1 and glucagon receptor dual agonist, in a translational mouse model of non-alcoholic steatohepatitis” (Scientific Reports, 2022).
# Assays:
# [1] = Pharmacokinetics after a single s.c. dose in C57BL/6J mice; assay type: in vivo, mouse; details: single s.c. 10 nmol/kg
# Protocol: PK parameters following a single subcutaneous (s.c.) administration of ALT-801 or semaglutide (both stock concentrations at 10 nmol/kg) were evaluated in male C57BL6/J mice at The Jackson Laboratory-JAX West (Sacramento, CA). Both compounds were formulated at 0.02 mg/mL in 50 mM phosphate buffer and 0.05% Tween 80 at pH ~ 8. The dosing volume was approximately 2 mL/kg. Blood samples (~ 200 µL) were collected at 1, 4, 8, 24, 48, 72, 96, and 120 h post-dosing (n = 4 per time point). Each mouse was bled at two time points and the second time point was a terminal bleed. Plasma concentrations of ALT-801 and semaglutide were determined using liquid chromatography coupled with tandem mass spectrometry with a limit of quantitation of 1 and 2 ng/mL for semaglutide and ALT-801, respectively. Non-compartmental PK analysis using WinNonlin was performed by using the mean concentrations at each sampling time point to report the Cmax, Tmax, the area under the plasma concentration curve from time zero to infinity (AUC0–inf), T1/2, and the mean residence time (MRT).
# DIO-NASH mouse model = assay: Biopsy-confirmed DIO-NASH (AMLN diet) mouse model, 12 weeks of daily treatment; assay type: in vivo
# Protocol: ALT-801 was evaluated for its metabolic and anti-fibrotic effects during 12 weeks of treatment in the well-documented Amylin Liver NASH (AMLN) DIO-NASH mouse model[22],[44] at Gubra ApS. Mice had ad libitum access to tap water and a diet high in fat (40%, containing 18% trans-fat; 40% carbohydrates, 20% fructose) and 2% cholesterol (AMLN diet; D09100301, Research Diets, New Brunswick, NJ). Semaglutide (GLP-1R agonist) and elafibranor (peroxisome proliferator-activated receptor [PPAR]-α/δ agonist) were included as comparators to assess the effects of added GCGR agonism, and a previously observed modest antifibrotic effect in this assay, respectively.
# All experiments were conducted in accordance with Gubra Aps’ bioethical guidelines, which were fully compliant with internationally accepted principles for the care and use of laboratory animals. The Danish Animal Experiments Inspectorate approved all experiments which were conducted using internationally accepted principles for the use of laboratory animals under the personal license #2013-15-2934-00784. We also confirm that the study was carried out in compliance with the ARRIVE guidelines. Sixty male, 5-wk old, wild-type C57BL/6J mice (JanVier Labs, France) were group housed in a controlled environment (12 h light–dark cycle, 21 ± 2 °C, 50 ± 10% humidity) and fed the AMLN diet high in trans-fat, cholesterol, and fructose[46] ad libitum for 32 weeks to induce obesity and the NASH phenotype.
# After 29 weeks of diet induction (week-3 relative to start of treatment) a pre-treatment liver biopsy was performed as described in detail previously[44] to select animals for stratification and randomization based on histological assessment. Liver histology was scored using the NAS and fibrosis stage criteria defined by the NASH Clinical Research Network Pathology Committee[47] and only those animals with confirmed steatosis (score ≥ 2) and fibrosis (stage ≥ 1) were selected for stratification and randomization. A stratified randomization into treatment groups was performed for the biopsy-proven DIO-NASH mice according to liver collagen type 1 alpha 1 (Col1A1) quantification at week-3. Test animals (n = 12/group) were then single housed and treated once daily for a period of 12 weeks while maintaining the AMLN diet. Treatment groups were vehicle (0.05% Tween 80 in 50 mM Na2HPO4, pH 8, s.c.), 10 nmol/kg semaglutide (0.02 mg/mL, s.c.), 5 nmol/kg ALT-801 (0.02 mg/mL, s.c.), 10 nmol/kg ALT-801 (0.02 mg/mL, s.c.), or 78 μmol/kg elafibranor (6 mg/mL in 0.5% carboxymethyl cellulose, oral). ALT-801 and semaglutide were synthesized (≥ 95% purity) and supplied as acetate salts by CS Bio Co. (Menlo Park, CA). Elafibranor was obtained from Sunshine Chemical (Wuhan, China). After a total of 12 weeks on treatment, the animals were euthanized, and liver tissue and terminal plasma were collected for histological and biochemical analysis.
# Paraffin embedded slides of biopsied baseline liver tissue (50 to 100 mg) and terminal samples (approximately 200 mg) were prepared to assess hepatic morphology including steatosis and fibrosis by staining with hematoxylin and eosin (H&E) and picrosirius red, respectively. Immunohistochemical staining for Col1A1 (baseline biopsy and terminal liver) and galectin-3 (Gal-3) (terminal samples only) was also performed to assess hepatic fibrosis and inflammation, respectively. Quantitative assessment of immunoreactivity was performed via image analysis using Visiomorph software (Visiopharm, Denmark). Blinded liver histology was scored using NAS criteria[47] and fibrosis stage.
# Terminal blood samples were collected in heparinized tubes and plasma was separated and stored at − 80 °C until analysis. Triglycerides (TG), total cholesterol (TC), alanine aminotransferase (ALT), and aspartate aminotransferase (AST) plasma levels were measured using commercial kits (Roche Diagnostics, Germany) on a Cobas C-501 auto analyzer according to manufacturer’s instructions. […]
# serum albumin = details: estimated; near quantitative but transient binding; cited from earlier work
# Excerpt: The chemical structure of ALT-801 utilizes a stabilized peptide structure including sequence elements of both GLP-1 and glucagon, coupled with EuPort™ modification, a proprietary glycolipid moiety designed to achieve a prolonged duration of action consistent with weekly dosing. […] In addition, the surfactant-like features of the EuPort™ domain lead to formation of micelles, which, upon s.c. administration, sl ...
# db/db mouse model = details: diabetic db/db mouse model, compared with an equivalent dose of semaglutide; cited from earlier work
# Excerpt: Similarly, another study compared body weight, food consumption, and total energy expenditure outcomes for GLP-1R/GCGR dual agonist and a GLP-1R agonist in DIO mice and DIO monkeys.
# [2] = 10 nmol/kg s.c. daily, 12 weeks
# [3] = 5 and 10 nmol/kg s.c. daily, 12 weeks, p < 0.0001
# [4] = 5 and 10 nmol/kg s.c. daily, 12 weeks, p < 0.001
# [5] = 5 and 10 nmol/kg s.c. daily, 12 weeks, whole liver basis, histomorphometry
smiles,measurement,setting,value
CC[C@H](C)[C@H](NC(=O)[C@H](Cc1ccccc1)NC(=O)[C@H](CCC(=O)O)NC(=O)[C@@H]1CCCCNC(=O)CC[C@H](NC(=O)[C@H](CC(=O)O)NC(=O)[C@H](CC(C)C)NC(=O)[C@H](Cc2ccc(O)cc2)NC(=O)[C@H](CCCCN)NC(=O)[C@H](CO)NC(=O)[C@H](Cc2ccc(O)cc2)NC(=O)[C@H](CC(=O)O)NC(=O)[C@H](CO)NC(=O)[C@@H](NC(=O)[C@H](Cc2ccccc2)NC(=O)[C@@H](NC(=O)CNC(=O)[C@H](CCC(N)=O)NC(=O)C(C)(C)NC(=O)[C@@H](N)Cc2c[nH]cn2)[C@@H](C)O)[C@@H](C)O)C(=O)N[C@@H](CCCCNC(=O)[C@H]2O[C@@H](OCCCCCCCCCCCCCCCCCC(=O)O)[C@H](O)[C@@H](O)[C@@H]2O)C(=O)N[C@@H](C)C(=O)N[C@@H](C)C(=O)N1)C(=O)N[C@@H](CCC(N)=O)C(=O)N[C@@H](Cc1c[nH]c2ccccc12)C(=O)N[C@@H](CC(C)C)C(=O)N[C@@H](CC(C)C)C(=O)N[C@@H](CCC(N)=O)C(=O)N[C@H](C(N)=O)[C@@H](C)O [ALT-801],Cmax as % of the value for semaglutide,"[1]; mice, equimolar doses",50%
same,AUC as % of the value for semaglutide,"[1]; mice, equimolar doses, AUC0-inf",> 86%
same,AUC(0-inf),"[1]; mouse, in vivo, sc, male C57BL/6J mice, plasma, LC-MS/MS, non-compartmental analysis of mean concentrations (n = 4 per time point)",2690 ng·h/mL
same,Animals with reduction in fibrosis stage of 1 or greater compared to the start of treatment,"DIO-NASH mouse model; 5 nmol/kg s.c. daily, 12 weeks",64%
same,Animals with reduction in fibrosis stage of 1 or greater compared to the start of treatment,DIO-NASH mouse model; [2],55%
same,Plasma ALT levels,DIO-NASH mouse model; [2],returned to the normal range
same,Reduction in NAS achieved by all animals,DIO-NASH mouse model; [2],at least 3
same,Body weight of the group,"DIO-NASH mouse model; 10 nmol/kg s.c. daily, normal body weight range for this mouse strain, then maintained",~ 30 g
same,Plasma TG compared to vehicle control and semaglutide groups,"DIO-NASH mouse model; 5 and 10 nmol/kg s.c. daily, 12 weeks",lower
same,Liver weight compared to vehicle control,DIO-NASH mouse model; [3],significantly decreased
same,Total liver TC compared to vehicle control,DIO-NASH mouse model; [3],significantly lower
same,Total liver TG compared to vehicle control,DIO-NASH mouse model; [3],significantly lower
same,Terminal plasma ALT compared to vehicle control,DIO-NASH mouse model; [4],significantly lower
same,Terminal plasma AST compared to vehicle control,DIO-NASH mouse model; [4],significantly lower
same,Liver fibrosis marker Col1A1,DIO-NASH mouse model; [5],significant reduction
same,Liver inflammation marker Gal-3,DIO-NASH mouse model; [5],significant reduction
same,"Composite NAS after treatment, all animals","DIO-NASH mouse model; ALT-801 treated DIO-NASH animals, 12 weeks",≤ 3
same,Body weight vs. vehicle,"DIO-NASH mouse model; daily for 12 weeks, ALT-801 5 and 10 nmol/kg s.c., semaglutide 10 nmol/kg s.c., elafibranor 78 μmol/kg oral, stabilized after 2–3 weeks, n = 11–12",significant (p < 0.001) body weight decreases
same,Body weight decrease after a single dose,DIO-NASH mouse model; single dose 10 nmol/kg given inadvertently to vehicle animals on day 63,~ 8%
same,Binding to serum albumin,serum albumin,> 99%
same,Blood glucose,db/db mouse model,reduce blood glucose in the diabetic db/db mouse model at least as well as an equivalent dose of semaglutide
